# In publication PMC3437750 (Journal of medicinal chemistry, 2011):
# Target: T1, purified human PMI (Homo sapiens, UniProt P34949)
# T1 sequence (P34949 1-423): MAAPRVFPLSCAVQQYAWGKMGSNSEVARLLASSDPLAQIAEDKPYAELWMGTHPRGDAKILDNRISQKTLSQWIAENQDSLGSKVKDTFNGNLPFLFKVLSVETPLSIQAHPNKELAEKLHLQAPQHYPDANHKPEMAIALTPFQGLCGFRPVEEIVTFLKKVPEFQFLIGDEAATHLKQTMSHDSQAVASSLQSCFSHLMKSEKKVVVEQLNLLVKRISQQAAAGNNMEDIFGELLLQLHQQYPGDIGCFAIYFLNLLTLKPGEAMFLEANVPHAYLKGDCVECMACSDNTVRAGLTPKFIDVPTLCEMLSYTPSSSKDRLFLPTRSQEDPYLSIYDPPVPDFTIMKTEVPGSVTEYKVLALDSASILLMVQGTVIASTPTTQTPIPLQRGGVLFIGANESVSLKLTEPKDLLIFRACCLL
# Type: biochemical
# Details: PMM2 versus PMI inhibition
structure (smiles),measurement,value
"Cc1ccc(C)c(-n2sc3cc(F)ccc3c2=O)c1 [Compound 17, 2-(2,5-Dimethylphenyl)-6-fluorobenzo[d]isothiazol-3(2H)-one]",fold selectivity for PMI (over PMM2),7–9 fold
